# Binding of CDR-mutated scFvs to a peptide of the spike HR2 region

Source: Li et al. 2023 (doi:10.1038/s41467-023-39022-2), MIT Lincoln Laboratory and A-Alpha Bio; data file from the FLAb repository.

Target: peptide PDVDLGDISGINAS, taken from heptad repeat 2 (HR2) of SARS-CoV-2 spike.

Each scFv is VH, a (GGGGS)3 linker, VL, as in the parent Ab-14, and differs from it in the CDRs of the heavy chain only.
VH: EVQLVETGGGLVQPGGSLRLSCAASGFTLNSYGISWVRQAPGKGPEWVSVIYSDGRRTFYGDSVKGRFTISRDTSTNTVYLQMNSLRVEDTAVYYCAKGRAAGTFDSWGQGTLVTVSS
VL: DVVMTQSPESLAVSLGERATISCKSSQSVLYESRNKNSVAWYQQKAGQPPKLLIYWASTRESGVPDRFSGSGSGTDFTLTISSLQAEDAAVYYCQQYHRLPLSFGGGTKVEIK

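The parent was found by panning a naive human phage display library on the peptide. This is the validation round: designs drawn from the data on random variants, tested in the same kind of assay. Group labels follow the data file (Ctrl: baseline library sampled from a position-specific scoring matrix, with some repeated check sequences; Rand: our label for a block that the file lists under HC and that is probably the random mutants of the ten best first-round binders; En: ensemble of fine-tuned language models; GP: Gaussian process model; GPLM: also part of the Gaussian process libraries; HC: hill climbing; Gen: genetic algorithm; Gibbs: Gibbs sampling; a sequence that several methods proposed may carry one label only). Affinity was read by AlphaSeq, a pooled yeast mating assay with surface-displayed partners. Mating (16 h, 30 °C) was followed by selection of diploids and sequencing of their barcodes. Read counts were normalised to the haploid input and turned into Kd by a linear fit to BCL2-family pairs of known affinity, for each replicate. Mating was done six times.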

The parent's heavy chain CDRs are GFTLNSYGIS, VIYSDGRRTFYGDSVK, GRAAGTFDS; each variant's own CDRs replace them letter for letter. Numbers give log10(Kd / nM), so 0 is 1 nM and 3 is 1 µM. Smaller is tighter. Averages over replicates are reported, and they cover detected replicates only. A pair that was not seen in any replicate is written "not detected"; this usually means weak binding, but a binder can also be missed. Three control strains display no target. For all heavy chain designs, 1% of the pairings with them gave a signal, with a median of 2.08 and one signal in twenty below 0.84, so weak values seen in few replicates may be background.

| CDR-H1 | CDR-H2 | CDR-H3 | group | mean log10 Kd (nM) | detected |
|---|---|---|---|---|---|
| GFDIEEYGIS | VIYADGVRTMYADDVK | GNSKNYSLM | En_Gibbs | 3.17 | 1/6 |
| GFQLNSYGIS | VIYSDGRRTFYQDSVK | GRTAGTFDA | GP_Gibbs | 0.50 | 6/6 |
| GFTLNEYGIS | VIYSDGRRTFYADSVK | GRLAGTFDS | GPLM_HC | -0.19 | 6/6 |
| GFSLNEYGIS | VIYSDGQRTFYGDSVK | GRAAGTFDS | GPLM_Gen | not detected | 0/6 |
| GFSLDEYGIS | VIYADGMRTFYADSVK | GNSAGTFDS | En_HC | 0.67 | 6/6 |
| GFDLNEYGIS | VIYADGRRTAYVDSVK | GNVAGTFDV | En_Gen | 0.02 | 6/6 |
| GFNLDEYGIS | VIYADGMRRAYVDEVK | GSHSDVQLM | En_Gibbs | not detected | 0/6 |
| GFDLDEYGVS | VIYADGQRTYYTNAVK | GEISAGFLI | En_Gibbs | not detected | 0/6 |
| GFDLDEYGIS | VIYADGMRTFYADSVK | GNLAGTFDV | En_HC | -0.56 | 6/6 |
| GFDLDEYGIS | VIYADGMRTAYADSVK | GGNAGTFDT | En_Gen | -0.20 | 6/6 |
| RFTLNSYGIS | VIYSDGRRTFYIDSVK | GRQAGTFDS | GP_HC | not detected | 0/6 |
| GFTLNSYGIS | VIYSDGRRTFYSDSVK | GREAGTFES | GP_HC | 0.20 | 6/6 |
| GFDLNEYGIS | VIYADGVRTAYSDSVK | GETGGTFDS | En_HC | 0.07 | 6/6 |
| GFQLEEYGIS | VIYADGTRTMYLPTVK | GVNGGTFQM | En_Gibbs | not detected | 0/6 |
| GFTLNSYGIS | VIYSDGRRTFYGDSVK | GREAGTFSS | Ctrl | 1.79 | 6/6 |
| GETLNSYGIS | VIYSDGRRTFYDDSVK | GRAAGDFDS | Ctrl | not detected | 0/6 |
| GFTLDDYGIS | VIYSDGRRTFYGDSVK | GRCAGCFDS | Ctrl | not detected | 0/6 |
| GFTLDSNGIS | VIYSDGRRTFYGDCVK | GRARGTALS | Rand | not detected | 0/6 |
| GFDLNSYGIS | VIYSDGKRTFYGDSVK | GKQAGTFDS | GP_Gibbs | -0.08 | 6/6 |
| GFDLNEYGIS | VIYADGMRQAYADSVK | GNVAGTFDL | En_Gen | -0.64 | 6/6 |
| GFTLNSYGIS | VIYSDGRRTAYEDSVK | DKAAGPFDS | Ctrl | 3.85 | 2/6 |
| GFDLNSYGIS | VIYSDGRRTFYCDSVK | GRTAGTFDT | GP_Gen | 0.51 | 6/6 |
| GFDLNEYGIS | VIYSDPRRTFYGDSVK | GRAAGRFDS | Ctrl | not detected | 0/6 |

Continued, with the values leading:

| mean log10 Kd (nM) | detected | CDR-H1 | CDR-H2 | CDR-H3 | group |
|---|---|---|---|---|---|
| -0.36 | 6/6 | GFDLNEYGIS | VIYADGRRTAYIDSVK | GHAAGTFDK | En_HC |
| 0.46 | 4/6 | GFDLNEYGIS | VIYADGMRTSYADDVK | GNNAGTFDV | En_Gen |
| not detected | 0/6 | GYTLQSYGIS | VIYSDGRRTFYGDSVK | GRAAGTFLS | Ctrl |
| 0.58 | 6/6 | GFDLNSYGIS | VIYSDGRRTFYADMVK | GQAAGTFDS | GP_Gen |
| 1.13 | 5/6 | GFDLNSYGIS | VIYSDGRRTFYSDSVK | GTAGGTFDS | GP_HC |
| not detected | 0/6 | GFTLNSYGIS | VIYSDGVRTFYGDSVK | EYAAGTFVS | Ctrl |
| not detected | 0/6 | GFTLNSYGIS | VIYSDGRRTAYGDSFK | GSAAGTSDS | Ctrl |
| 2.14 | 2/6 | GFELNSYGIS | VIYSDGRRTAYHDSVK | GRAAGTFDS | GP_HC |
| -0.38 | 6/6 | GFDLDEYGIS | VIYADGMRTAYADDVK | GQNAGTFDI | En_Gen |
| not detected | 0/6 | GFTPNSYGVS | VIYSDGRRTFYGDSVK | GREMGTFDS | Ctrl |
| not detected | 0/6 | KFSLNQYGIS | VIYSDGRRTFYGDSVK | GQAAGTFDS | GP_Gibbs |
| 0.10 | 6/6 | GFNLNEYGIS | VIYADGMRTFYIDKAK | GNAGIVFEV | En_Gibbs |
| 0.85 | 6/6 | GFLLNDYGIS | VIYSDGRRTFYKDSVK | GRQAGTFDS | GP_HC |
| 1.25 | 5/6 | KFSLNSYGIS | VIYSDGRRTFYADSVK | GKTAGTFDS | GP_Gen |
| not detected | 0/6 | GFTLNQYGIS | VIYWDGRRTFYGDSVK | GRAAGTFDS | Ctrl |
| 0.42 | 6/6 | GFDLNEYGIS | VIYADGRRTFYADSVK | GEAGGTFDA | En_HC |
| 0.14 | 6/6 | GFDLNSYGIS | VIYSDGRRTFYADRVK | GREAGTFDT | GP_Gibbs |
| -0.13 | 6/6 | GFTLNEYGIS | VIYSDGRRTFYGDSVK | GRVAGTFDV | GPLM_Gibbs |
| not detected | 0/6 | GFTLNSYGIS | VIGADGRRTFYGDNVK | GTAAGTFDS | Ctrl |
| -0.77 | 6/6 | GFDLDEYGIS | VIYADGRRTFYSDNVK | GEAAGTFDI | En_HC |
| -0.64 | 6/6 | GFDLNEYGIS | VIYADGQRTAYTDSVK | GNVAGTFDQ | En_Gen |
| 1.72 | 1/6 | GFSLNEYGIS | VIYADGMRTEYAQNFK | GYNSSDLTV | En_Gibbs |
| 0.14 | 6/6 | GFSLNSYGIS | VIYSDGRRTFYADNVK | GQTAGTFDS | GP_Gen |

Repeated from above, the 7 best binders with a signal in all replicates:

| CDR-H1 | CDR-H2 | CDR-H3 | group | mean log10 Kd (nM) | detected |
|---|---|---|---|---|---|
| GFDLDEYGIS | VIYADGRRTFYSDNVK | GEAAGTFDI | En_HC | -0.77 | 6/6 |
| GFDLNEYGIS | VIYADGQRTAYTDSVK | GNVAGTFDQ | En_Gen | -0.64 | 6/6 |
| GFDLNEYGIS | VIYADGMRQAYADSVK | GNVAGTFDL | En_Gen | -0.64 | 6/6 |
| GFDLDEYGIS | VIYADGMRTFYADSVK | GNLAGTFDV | En_HC | -0.56 | 6/6 |
| GFDLDEYGIS | VIYADGMRTAYADDVK | GQNAGTFDI | En_Gen | -0.38 | 6/6 |
| GFDLNEYGIS | VIYADGRRTAYIDSVK | GHAAGTFDK | En_HC | -0.36 | 6/6 |
| GFDLDEYGIS | VIYADGMRTAYADSVK | GGNAGTFDT | En_Gen | -0.20 | 6/6 |

Of ten entries with the parent sequence, four were seen in most replicates (averages 0.34 to 2.37), three in one and three in none, so single entries are noisy. In the paper, a design with two or fewer of six values counts as a poor binder. Values of this round are not directly comparable with the first-round values of the same sequences.